# Literature values in US7449114B2, “Halogenated solvent remediation” (SRP Technologies, Inc., priority 2000, dated 2008).
# Conditions: surfactant concentration 1%; cited from earlier work
substance,measurement,value
Nonylphenol ethoxylate,PCE Solubilized,"1,300 mg/l"
